Literature values in patent US8889627B2 (Teva Pharmaceutical Industries, Ltd., priority 2011, dated 2014).

The chains behind the UniProt entries cited, without tags or fusion partners.
UniProt P21453, whole entry, species assumed: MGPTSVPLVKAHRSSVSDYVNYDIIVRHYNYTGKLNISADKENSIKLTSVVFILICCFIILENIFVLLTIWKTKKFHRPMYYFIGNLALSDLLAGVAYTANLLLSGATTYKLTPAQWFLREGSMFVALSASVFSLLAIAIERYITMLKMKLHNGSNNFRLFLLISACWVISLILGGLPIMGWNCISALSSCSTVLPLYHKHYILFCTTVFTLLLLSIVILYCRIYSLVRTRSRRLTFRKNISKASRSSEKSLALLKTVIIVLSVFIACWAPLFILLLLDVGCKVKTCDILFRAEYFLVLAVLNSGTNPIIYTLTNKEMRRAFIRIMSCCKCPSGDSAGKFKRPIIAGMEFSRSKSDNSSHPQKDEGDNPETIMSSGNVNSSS
UniProt Q99500, whole entry, species assumed: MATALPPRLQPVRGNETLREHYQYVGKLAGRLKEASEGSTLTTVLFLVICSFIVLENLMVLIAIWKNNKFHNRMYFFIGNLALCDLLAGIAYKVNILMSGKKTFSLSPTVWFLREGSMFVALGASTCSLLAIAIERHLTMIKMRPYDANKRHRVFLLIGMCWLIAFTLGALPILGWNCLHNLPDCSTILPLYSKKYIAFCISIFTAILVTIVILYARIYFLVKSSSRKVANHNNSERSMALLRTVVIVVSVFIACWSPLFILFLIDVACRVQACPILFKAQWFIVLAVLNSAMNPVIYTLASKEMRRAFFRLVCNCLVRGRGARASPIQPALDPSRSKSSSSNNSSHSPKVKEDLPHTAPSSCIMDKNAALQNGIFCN

Tests used:
S1PR-1 = S1PR-1 (Homo sapiens, UniProt P21453); conditions: cited from earlier work
S1PR3 = S1PR3 (Homo sapiens, UniProt Q99500); conditions: cited from earlier work

SMILES: CCCCCCCCc1ccc(CCC(N)(CO)COP(=O)(O)O)cc1 (centres unmarked) [Fingolimod-phosphate]
- binding affinity (in words) (S1PR-1): high affinity
- binding affinity (in words) (S1PR3): high affinity
